Results published in PubChem BioAssay AID1496 (Sanford-Burnham Center for Chemical Genomics, 2009).
The entries are a selection whose mix differs from that of the whole data set. Active and inactive are the calls of the source.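 How the source made its calls: active means inhibition over about 50% at 20 µM in the single-dose screen (limit read from the data); inactive means the rest.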

Amino acid sequences for entries named in this document (tags omitted).
UniProt Q01196, whole entry, looked up: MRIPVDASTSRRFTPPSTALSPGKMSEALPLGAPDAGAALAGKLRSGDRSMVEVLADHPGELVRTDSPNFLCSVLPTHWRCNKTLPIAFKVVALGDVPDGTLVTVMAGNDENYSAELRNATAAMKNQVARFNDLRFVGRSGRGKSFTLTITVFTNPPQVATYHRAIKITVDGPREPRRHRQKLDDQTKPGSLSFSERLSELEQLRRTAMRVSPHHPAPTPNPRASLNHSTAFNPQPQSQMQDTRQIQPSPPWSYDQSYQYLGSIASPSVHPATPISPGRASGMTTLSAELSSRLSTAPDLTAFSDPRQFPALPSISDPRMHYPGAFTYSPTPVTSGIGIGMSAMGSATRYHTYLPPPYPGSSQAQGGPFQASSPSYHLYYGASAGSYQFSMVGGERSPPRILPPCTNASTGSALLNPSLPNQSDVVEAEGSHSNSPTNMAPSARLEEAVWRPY
UniProt Q13951, whole entry, looked up: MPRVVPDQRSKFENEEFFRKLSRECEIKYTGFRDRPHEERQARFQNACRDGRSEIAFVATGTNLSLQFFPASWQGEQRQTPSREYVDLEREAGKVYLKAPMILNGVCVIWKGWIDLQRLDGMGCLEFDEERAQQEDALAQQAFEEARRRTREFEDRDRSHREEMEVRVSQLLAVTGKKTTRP

Target: Runt-related transcription factor 1 (Homo sapiens) + Core-binding factor subunit beta (Homo sapiens) (UniProt Q01196+Q13951)
Test: inhibitors of RUNX1 Runt–CBFb binding, primary screen, biochemical, FRET, Cerulean-Runt, Venus-CBFb, uHTS (AID 1496);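 further: 0% = DMSO wells and 100% = excess unlabeled CBFb competitor control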
Details: Cerulean-Runt/Venus-CBFb FRET ratio 530/480, 1 h; at 20 µM; stronger effect = higher value
Summary of the method: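 Schedule: protein complex preformed 1 h, compound exposure 1 h, room temperature, dark; test system: Cerulean-labeled Runt domain protein; amount: 100 nM per protein; buffer or medium: Tris 50 mM pH 7.5, KCl, K2SO4, 0.01% BSA; read-out: loss of energy transfer signal; detection: FRET fluorescence; controls: 5 µM unlabeled CBFb as full-inhibition high control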

Structure (SMILES) | inhibition
N/C(=N\O)c1c(N)no[n+]1[O-] | inactive: -1.2%
O=C(OC1CN2CCC1CC2)C1c2ccccc2C=Cc2ccccc21 (centres undefined) | inactive: -3.1%
COc1ccc(C(=O)NCC2(N3CCOCC3)CCCCC2)cc1OC | inactive: -0.1%
c1ccc(CN2CCC(Nc3ccccc3)CC2)cc1 | inactive: -0.1%
N#Cc1ccc(C(=O)NCC2(N3CCCCC3)CCCCC2)cc1 | inactive: -1.3%
CCN1CCC(Nc2cccc(F)c2)CC1 | inactive: -1.8%
CN(C)c1ccc(C(=O)NCC2(N3CCCCC3)CCCCC2)cc1 | inactive: 1.4%
Fc1ccccc1NC1CCN(Cc2ccccc2)CC1 | inactive: -1.3%
CCC(CO)(C(=O)OC1CN2CCC1CC2)c1ccccc1 (centres undefined) | inactive: -0.8%
COc1cc(OC)cc(C(=O)NCC2(N3CCOCC3)CCCCC2)c1 | inactive: -2.1%
CCCOc1ccc(C)cc1CN(CCCl)CCCl | inactive: 1.7%
CCOc1ncccc1C(=O)NCC1(N2CCOCC2)CCCCC1 | inactive: 0.4%
CC(C)(C)OC(=O)N1CCC(Nc2ccccc2)CC1 | inactive: -2.4%
O=C(NCC1(N2CCOCC2)CCCCC1)c1cc2ccccc2o1 | inactive: -0.6%
CCOC(=O)N1CCC(Nc2ccc(OC)cc2)CC1 | inactive: 0.9%
O=C(OC1CN2CCC1CC2)C1c2ccccc2Oc2ccccc21 (centres undefined) | inactive: -1.1%
N#CC1(Nc2ccccc2)CCN(Cc2ccccc2)CC1 | inactive: -1.7%
COc1ccc(C(=O)NCC2(N3CCCCC3)CCCCC2)c(OC)c1OC | inactive: 1.9%
Cc1ccc(OCC(C)C)c(CN(CCCl)CCCl)c1 | inactive: 0.7%
CCOc1ccc(C)cc1CN(CCCl)CCCl | inactive: 1.4%
COc1ccc(NC2CCN(CCc3ccccc3)CC2)c(OC)c1 | inactive: 17.2%
COc1ccc(NC2CCN(C(=O)OC(C)(C)C)CC2)cc1 | inactive: 11%
CN1CCN(CCOC(=O)C(O)(c2ccccc2)c2ccccc2)CC1 | inactive: -2.3%
O=C(NCC1(N2CCOCC2)CCCCC1)c1cc(=O)[nH]c2ccccc12 | inactive: 1.7%
O=C(NCC1(N2CCCCC2)CCCCC1)c1cccc([N+](=O)[O-])c1 | inactive: -0.5%
N#CC1(Nc2ccccc2)CCN(CCc2ccccc2)CC1 | inactive: -0.4%
CN(C)c1cccc(C(=O)NCC2(N3CCCCC3)CCCCC2)c1 | inactive: -0.7%
COc1ccc(CN(CCCl)CCCl)cc1Cl | inactive: -1.8%
CC(C)c1ccc(NC2CCN(C(=O)OC(C)(C)C)CC2)cc1 | inactive: 3.3%
